Laboratory results reported in the supplement of paper PMC12669032.
What follows is the remainder of the data, with few or none of the hits.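 Rule for the calls: active = AUC reduced over 20% with Padj below 0.05 in at least 2 of 3 replicates; inactive = otherwise.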

system: Coprococcus comes; test: growth AUC relative to DMSO control (median of replicates) (fraction); higher = more growth (less inhibition), active = hit call of the paper; details: 20 µM; 24 h
Protocol: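 Anaerobic monocultures of 22 human gut bacterial strains grown at 37 °C in mGAM with 20 µM compound (1% DMSO), starting OD600 0.05. OD600 read hourly for 24 h. Value is the median of 3 biological replicates. Hit: >20% AUC reduction and Padj<0.05 in at least 2 of 3 replicates.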

Compound	growth AUC
CCOc1nc(C(Cl)(Cl)Cl)ns1	inactive: 1.02
CCOP(=S)(OCC)Oc1ncn(-c2ccccc2)n1	inactive: 1
